{
  "source": "patent US20070190043A1",
  "about": "“Use of a topical medicament comprising riluzole” (Biofrontera AG, priority 2003, published 2007)",
  "tested_on": "psoriatic plaque",
  "conditions": "1%, 2% and 4% cream, 100 μl occlusive, 11 days, 24 patients",
  "data": [
    {"smiles": "Nc1nc2ccc(OC(F)(F)F)cc2s1", "note": "[Riluzole, 2-amino-6-(trifluoromethoxy)-benzothiazole]", "values": [
      {"measurement": "parameters of psoriasis severity (visual scoring, skin colour, skin thickness) compared to placebo control", "value": "improvement of one or more parameters of psoriasis severity"}
    ]}
  ]
}
